Measured values published in patent US9187435B2, “Bridged Spiro[2.4]heptane ester derivatives” (Actelion Pharmaceuticals Ltd., priority 2010, dated 2015).
pEC50: −log10 of the molar value.

Biological target: T1, human ALX receptor (Homo sapiens, UniProt P25090)
T1 construct: expressed in transfected cells; host or cells: HEK293 (HEK293-hALXR-Gα16)
T1 sequence (P25090 1-351): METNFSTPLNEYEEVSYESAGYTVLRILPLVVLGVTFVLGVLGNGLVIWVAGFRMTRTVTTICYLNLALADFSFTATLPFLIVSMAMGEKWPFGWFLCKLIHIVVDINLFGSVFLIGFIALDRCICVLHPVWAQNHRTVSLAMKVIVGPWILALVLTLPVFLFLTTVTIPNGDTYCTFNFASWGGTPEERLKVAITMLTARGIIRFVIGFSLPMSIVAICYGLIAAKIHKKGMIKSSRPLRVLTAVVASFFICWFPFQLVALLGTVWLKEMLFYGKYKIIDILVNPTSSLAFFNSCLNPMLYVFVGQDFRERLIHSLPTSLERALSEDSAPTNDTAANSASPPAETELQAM
Experiment: Intracellular calcium measurements (FLIPR) in HEK293-hALXR-Gα16 cells, agonistic activity
Assay type: cell-based
Conditions: values normalized to WKYMVm 10 nM
Method: The ALX receptor and FPRL2 agonistic activities of the compounds of formula (I) are determined in accordance with the following experimental method.
Intracellular Calcium Measurements:
Cells expressing recombinant human ALX receptor and the G-protein Gα16 (HEK293-hALXR-Gα16) were grown to 80% confluency in Growing Medium (GM). Cells were detached from culture dishes with a cell dissociation buffer (Invitrogen, 13151-014), and collected by centrifugation at 1,000 rpm at rt for 5 min in Assay Buffer (AB) (equal parts of Hank's BSS (Gibco, 14065-049) and DMEM without Phenol Red (Gibco, 11880-028)). After 60 min incubation at 37° C. under 5% CO2 in AB supplemented with 1 μM Fluo-4 (AM) (Invitrogen, F14202), and 20 mM HEPES (Gibco, 15630-056), the cells were washed and resuspended in AB. They were then seeded onto 384-well FLIPR assay plates (Greiner, 781091) at 50,000 cells in 70 μl per well and sedimented by centrifugation at 1,000 rpm for 1 min. Stock solutions of test compounds were made up at a concentration of 10 mM in DMSO, and serially diluted in AB to concentrations required for activation dose response curves. WKYMVm (Phoenix Peptides) was used as a reference agonist. […] Changes in fluorescence were monitored before and after the addition of test compounds at lex=488 nm and lem=540 nm. […]

Row | pEC50 | Compound
1 | 8.12 | Cc1cc(CNC(=O)[C@H]2[C@H](C(=O)OC[C@@H]3CCNC[C@H]3F)[C@H]3CC[C@@H]2C32CC2)on1 (relative stereo) [Example 43, (1S,2R,3R,4R)-[(trans-3-Fluoro-piperidin-4-yl)methyl 2-(((3-methylisoxazol-5-yl)methyl)carbamoyl)spiro[bicyclo[2.2.1]heptane-7,1′-cyclopropane]-3-carboxylate]]
2 | 8.09 | Cc1cc(CNC(=O)[C@H]2[C@H](C(=O)OC[C@H]3CCNC[C@H]3F)[C@H]3CC[C@@H]2C32CC2)on1 (relative stereo) [Example 44, (1S,2R,3R,4R)-[(cis-3-Fluoro-piperidin-4-yl)methyl 2-(((3-methylisoxazol-5-yl)methyl)carbamoyl)spiro[bicyclo[2.2.1]heptane-7,1′-cyclopropane]-3-carboxylate]]
